# Assay results taken from patent US9877967B2.
# This is a selection: effects in other tests are not listed, and their absence says nothing.
# System: rats exposed to high dose furosemide and a low sodium diet and renal impairment
# Assay: Protective effect of L-97-1 against renal impairment in low-sodium rats (creatinine clearance)
# Conditions: 24-hr values extrapolated from 5-hr urine collection
# Protocol: Groups of 8 male Sprague-Dawley rats weighing 250±20 g are employed. Rats are given an oral dose of furosemide at 100 mg/kg on day −7 and then placed on a low sodium diet (0.03% Na^+ wt/wt) for 7 days prior to use in acute experiment (day 0). Furosemide alone, L-97-1 alone, or furosemide in combination with L-97-1 are administered. L-97-1 is administered by oral gavage. Furosemide is administered IV. A 5-hr urine collection is performed. Terminal bleed is collected for measurements of serum electrolytes (Na^+ and K^+) and creatinine. Urine volume is measured and then centrifuged (400 g, 10 min) and assayed for Na^+ and K^+ concentrations, and creatinine with an Automatic Analyzer (Toshiba, TBA 1200 FR). Urine volume and urinary electrolytes are calculated and expressed per 100 g of animal body weight.
# The total electrolytes (sodium and potassium) and creatinine in serum and urine are measured. Urine volume was collected over 5 hr. The 24-hr values for creatinine clearance and the fractional excretion of sodium are extrapolated from the 5-hr values. The 5-hr endogenous creatinine clearance (CCr) is used as a measure of glomerular filtration rate. […]
# The mean±SEM values for each treatment group is calculated. […]
structure (smiles),measurement,setting,value
CCCn1c(=O)c2c(nc(Cc3ccccc3)n2CCN(CC)CCO)n(CCc2ccc(N)cc2)c1=O,"Change in creatinine clearance (Ccr) from baseline Ccr (vehicle control, Group 4)","L-97-1 alone 50 mg/kg PO (Group 3) compared to furosemide alone 30 mg/kg IV (Group 1), P<0.05",significantly increased
same,"Change in creatinine clearance (Ccr) from baseline Ccr (vehicle control, Group 4)",furosemide 30 mg/kg IV plus L-97-1 50 mg/kg PO (Group 2) compared to furosemide alone (Group 1),increased
